The test system of this series is C1-NPs: fluorescein-conjugated MMP substrate peptide C1 (FAM-sk-PLGLEEA-GC) coupled to iron oxide nanoparticles.

As to recombinant MMP13, the “catalytic efficiency (Michaelis-Menten fit)” value was “catalytic efficiencies>10^3 M^-1 s^-1 and 10^4 M^-1 s^-1, respectively”.
